Assay results reported in ChEMBL document CHEMBL4373681, “Aurantiamide-related dipeptide derivatives are formyl peptide receptor 1 antagonists” (Medchemcomm, 2019).

Tests used:
Neutrophil = assay: Inhibition of fMLF-induced migration of human neutrophil preincubated for 30 mins followed by fMLF stimulation and measured after 60 mins by luminescence based assay; format: functional, cell-based
[1] = biological target: T1, fMet-Leu-Phe receptor (Homo sapiens) (UniProt P21462); assay: Antagonist activity against FPR1 in human neutrophils assessed as calcium mobilization preincubated for 30 mins followed by fMLF addition and measured for 5 sec for 240 sec by fluorometry; format: functional
T1 sequence (whole entry): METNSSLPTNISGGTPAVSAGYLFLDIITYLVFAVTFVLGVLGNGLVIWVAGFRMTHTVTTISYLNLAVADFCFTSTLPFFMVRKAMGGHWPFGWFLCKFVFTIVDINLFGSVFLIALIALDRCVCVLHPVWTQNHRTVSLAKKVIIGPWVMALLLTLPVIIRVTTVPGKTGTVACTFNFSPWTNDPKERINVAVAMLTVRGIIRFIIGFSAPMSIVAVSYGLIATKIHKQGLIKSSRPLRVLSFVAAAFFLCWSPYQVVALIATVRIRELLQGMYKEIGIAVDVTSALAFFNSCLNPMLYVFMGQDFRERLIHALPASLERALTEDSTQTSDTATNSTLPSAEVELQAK

COC(=O)[C@@H](CC1CCCCC1)NC(=O)[C@H](Cc1c[nH]c2ccccc12)NC(=O)c1ccccc1
inhibition (Neutrophil): Dose-dependent effect

COC(=O)[C@H](Cc1ccccc1)NC(=O)[C@H](Cc1c[nH]c2ccccc12)NC(=O)c1ccccc1
inhibition (Neutrophil): Dose-dependent effect

COC(=O)[C@@H](Cc1ccccc1)NC(=O)[C@H](Cc1c[nH]c2ccccc12)NC(=O)CC(C)C
Activity [1]: Dose-dependent effect

COC(=O)[C@@H](Cc1ccccc1)NC(=O)[C@H](Cc1c[nH]c2ccccc12)NC(=O)OC(C)(C)C
Activity [1]: Dose-dependent effect

COC(=O)[C@@H](Cc1ccccc1)NC(=O)[C@H](Cc1c[nH]c2ccccc12)NC(=O)c1ccccc1
inhibition (Neutrophil): Dose-dependent effect

COC(=O)[C@@H](CC(C)C)NC(=O)[C@H](Cc1c[nH]c2ccccc12)NC(=O)c1ccccc1
Activity [1]: Dose-dependent effect

COC(=O)[C@@H](Cc1ccccc1)NC(=O)[C@H](Cc1c[nH]c2ccccc12)NC(=O)C1CCCCC1
Activity [1]: Dose-dependent effect
inhibition (Neutrophil): Dose-dependent effect

COC(=O)[C@H](NC(=O)[C@H](Cc1c[nH]c2ccccc12)NC(=O)c1ccccc1)C(C)C
Activity [1]: Dose-dependent effect
